Measured values published in the NIST ThermoML archive (doi:10.1021/je600578u).

Legend:
[1] = 298.15 K; 101.33 kPa; Liquid
[2] = refractive index (Na D-line) (dimensionless); conditions: 298.15 K; 101.33 kPa; Liquid; Standard Abbe refractometry
[3] = xn = mol fraction of the nth substance listed; conditions: 298.15 K, 101 kPa, Liquid
[4] = refractive index (Na D-line) (dimensionless); xn = mol fraction of the nth substance listed; conditions: 298.15 K, 101 kPa, Liquid, Standard Abbe refractometry

CCCCOCCCC [dibutyl ether]
Conditions	mass density [kg/m3]	refractive index
[1]	764.22 ± 0.99	–
[2]	–	1.39646 ± 0.00052

CCCCOCCCC [dibutyl ether] + CCO
Conditions	mass density, [3] [kg/m3]	refractive index, [4]
x1 = 0.0502	782.69 ± 0.98	1.3643 ± 0.00052
x1 = 0.0997	780.5 ± 0.98	1.36848 ± 0.00052
x1 = 0.1995	777.02 ± 0.98	1.37548 ± 0.00052
x1 = 0.3	774.28 ± 0.98	1.38028 ± 0.00052
x1 = 0.4	772.09 ± 0.98	1.38429 ± 0.00052
x1 = 0.5003	770.31 ± 0.98	1.38771 ± 0.00052
x1 = 0.6022	768.81 ± 0.98	1.39046 ± 0.00052
x1 = 0.7013	767.53 ± 0.98	1.39237 ± 0.00052
x1 = 0.8005	766.35 ± 0.98	1.39414 ± 0.00052
x1 = 0.9014	765.28 ± 0.98	1.3955 ± 0.00052
x1 = 0.9489	764.79 ± 0.98	1.39608 ± 0.00052

CCCCOCCCC [dibutyl ether] + c1ccccc1
[3], Vibrating tube method
Conditions	mass density [kg/m3]
x1 = 0.0502	863.1 ± 0.72
x1 = 0.0999	853.73 ± 0.71
x1 = 0.1999	837.31 ± 0.69
x1 = 0.2999	823.35 ± 0.68
x1 = 0.4	811.31 ± 0.67
x1 = 0.4994	800.95 ± 0.66
x1 = 0.6002	791.7 ± 0.65
x1 = 0.6985	783.71 ± 0.64
x1 = 0.8005	776.38 ± 0.63
x1 = 0.9014	769.91 ± 0.63
x1 = 0.9506	767.02 ± 0.62

[4]
Conditions	refractive index
x1 = 0.0502	1.48717 ± 0.00054
x1 = 0.0999	1.47826 ± 0.00054
x1 = 0.1999	1.46325 ± 0.00054
x1 = 0.2999	1.45049 ± 0.00054
x1 = 0.4	1.43935 ± 0.00054
x1 = 0.4994	1.42978 ± 0.00054
x1 = 0.6002	1.42142 ± 0.00054
x1 = 0.6985	1.41407 ± 0.00054
x1 = 0.8005	1.40759 ± 0.00054
x1 = 0.9014	1.40163 ± 0.00054
x1 = 0.9506	1.39897 ± 0.00054

Numbers after ± are expanded uncertainties.
